Measured values reported in publication PMC6884456, “Supreme activity of gramicidin S against resistant, persistent and biofilm cells of staphylococci and enterococci” (Scientific Reports, 2019).

What was measured:
Settings in all cases: Mueller-Hinton broth, 22 h + 2 h resazurin, 37 °C, 5% CO2, three parallels
S. aureus DSM 1104 = format: cell-based, Staphylococcus aureus
S. aureus DSM 1104 SCV = format: cell-based, Staphylococcus aureus
S. aureus MRSA3 = format: cell-based, Staphylococcus aureus
S. aureus MRSA4 = format: cell-based, Staphylococcus aureus
S. aureus MRSA9 = format: cell-based, Staphylococcus aureus
S. aureus MRSA538 SCV = tested on: S. aureus MRSA538 SCV
Procedure: (§1) For the determination of MIC, the standard broth microdilution procedure[45] was used with a slight modification. Since the peptide stock solutions were prepared in 50% ethanol, the first rows of the 96-well microtiter plates were filled with 50 µl of 2 × concentrated Mueller-Hinton broth to reestablish the normal broth concentration after the addition of 50 µl peptide solutions. The MIC was determined as the lowest concentration that inhibited bacterial growth, judging from bacterial respiration in three parallels for each antibiotic. After incubation of the plates for 22 hours, the redox indicator resazurin (Sigma-Aldrich) was added to the wells (20 µl, 80 µM). The plates were incubated another 2 hours at 37 °C and 5% CO2. Respiration was determined as the difference in the absorption at 570 nm to 600 nm, using a microplate reader FLASHScan 550 (Analytik Jena).

S. aureus MRSA8 SCV = tested on: S. aureus MRSA8 SCV
Procedure: as §1

S. aureus MRSA9 SCV = tested on: S. aureus MRSA9 SCV
Procedure: as §1

E. faecalis DSM 2570 = format: cell-based, Enterococcus faecalis
E. faecalis WW4 = format: cell-based, Enterococcus faecalis
E. faecalis WW6 = format: cell-based, Enterococcus faecalis
E. faecalis TRE1 = format: cell-based, Enterococcus faecalis
E. faecalis TRE2 = format: cell-based, Enterococcus faecalis
E. faecalis TRE4 = format: cell-based, Enterococcus faecalis
E. faecium VRE1 = format: cell-based, Enterococcus faecium
E. faecium VRE2 = format: cell-based, Enterococcus faecium

Measured: MIC

CC[C@H](C)[C@H](NC(=O)[C@H](CCCNC(=N)N)NC(=O)[C@@H](NC(=O)[C@H](C)NC(=O)[C@@H](NC(=O)[C@@H](NC(=O)[C@H](CC(C)C)NC(=O)[C@H](CCCNC(=N)N)NC(=O)[C@@H](N)C(C)C)[C@@H](C)CC)C(C)C)C(C)C)C(=O)N[C@@H](Cc1c[nH]c2ccccc12)C(=O)N[C@@H](CCCNC(=N)N)C(=O)N[C@@H](CCCNC(=N)N)C(N)=O [IDR, IDR-1018]
64 (42) µg/ml: S. aureus DSM 1104 SCV | S. aureus MRSA3 | S. aureus MRSA538 SCV | S. aureus MRSA8 SCV | S. aureus MRSA9 SCV
16 (10) µg/ml: E. faecalis TRE4 | E. faecium VRE1
8 (5) µg/ml: E. faecium VRE2
32 (21) µg/ml: all other assays above
